From patent US11980774B2, “Illumination devices and related methods for phototherapeutic light treatments in the presence of vitamins” (priority 2021, dated 2024)

Tested on: influenza B
Details: 1 μM and 10 μM riboflavin; 425 nm light 15 J/cm^2 and 30 J/cm^2; FIG. 6F

Compound: Cc1cc2nc3c(=O)[nH]c(=O)nc-3n(C[C@H](O)[C@H](O)[C@H](O)CO)c2cc1C [riboflavin]
- reductions in viral load of influenza B: notable reductions
